Measurements taken from patent US9890152B2 (Genentech, Inc., priority 2012, dated 2018).

Sequences of proteins named here, by UniProt entry; tags and fusion partners are left off. Residues count along the entry.
UniProt P00533, 25-1210 T790M/L858R limits assumed: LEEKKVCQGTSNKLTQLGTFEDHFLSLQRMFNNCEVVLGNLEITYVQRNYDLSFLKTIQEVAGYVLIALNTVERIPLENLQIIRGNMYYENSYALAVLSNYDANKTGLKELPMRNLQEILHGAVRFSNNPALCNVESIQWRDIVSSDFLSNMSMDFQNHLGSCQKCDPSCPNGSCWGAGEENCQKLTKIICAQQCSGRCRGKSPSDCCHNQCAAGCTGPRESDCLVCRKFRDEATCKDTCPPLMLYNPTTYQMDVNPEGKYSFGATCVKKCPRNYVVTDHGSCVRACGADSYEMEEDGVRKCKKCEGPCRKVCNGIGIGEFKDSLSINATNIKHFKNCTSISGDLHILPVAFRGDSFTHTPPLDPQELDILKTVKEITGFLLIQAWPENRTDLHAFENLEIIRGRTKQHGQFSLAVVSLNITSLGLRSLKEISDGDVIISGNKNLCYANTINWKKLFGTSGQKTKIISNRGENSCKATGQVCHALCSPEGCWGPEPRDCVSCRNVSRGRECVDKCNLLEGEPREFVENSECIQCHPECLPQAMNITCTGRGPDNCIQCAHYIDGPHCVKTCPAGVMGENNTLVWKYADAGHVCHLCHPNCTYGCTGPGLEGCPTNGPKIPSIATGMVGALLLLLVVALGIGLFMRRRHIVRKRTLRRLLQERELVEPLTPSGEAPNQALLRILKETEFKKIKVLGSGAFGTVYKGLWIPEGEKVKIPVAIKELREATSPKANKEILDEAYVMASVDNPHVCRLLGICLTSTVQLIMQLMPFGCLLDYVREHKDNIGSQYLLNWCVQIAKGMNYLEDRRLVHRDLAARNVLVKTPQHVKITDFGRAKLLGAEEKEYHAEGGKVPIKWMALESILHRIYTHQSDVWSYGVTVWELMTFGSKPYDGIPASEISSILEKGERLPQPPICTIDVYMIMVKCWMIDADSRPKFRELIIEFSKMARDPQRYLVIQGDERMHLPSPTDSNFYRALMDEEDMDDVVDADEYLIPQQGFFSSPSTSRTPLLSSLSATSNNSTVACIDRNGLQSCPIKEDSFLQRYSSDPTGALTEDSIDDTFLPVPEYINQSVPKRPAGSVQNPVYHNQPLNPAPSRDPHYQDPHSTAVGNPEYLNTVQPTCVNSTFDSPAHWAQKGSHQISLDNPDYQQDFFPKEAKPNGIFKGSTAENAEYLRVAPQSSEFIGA

target: EGFR T790M L858R (Homo sapiens, UniProt P00533, L858R/T790M); test: biochemical; details: EGFR(T790M/L858R) Ki (μM), 5 μM ATP, 30 min, room temperature; apparent Ki (Morrison) converted by Cheng-Prusoff, Km of ATP 1.3 μM

Ki | Structure (SMILES)
0.216 µM | CC(C)n1cnc2cnc(Nc3ccnc(N4CCN(C(N)=O)CC4)n3)cc21 [Example 70, 4-(4-(1-isopropyl-1H-imidazo[4,5-c]pyridin-6-ylamino)pyrimidin-2-yl)piperazine-1-carboxamide]
0.0347 µM | Cc1nc2cnc(Nc3ccnc(N4CCC(OC(F)F)CC4)n3)cc2n1C(C)C [Example 549, [2-(4-Difluoromethoxypiperidin-1-yl)pyrimidin-4-yl]-(1-isopropyl-2-methyl-1H-imidazo[4,5-c]pyridin-6-yl)amine]
1.44 µM | CC(C)n1cnc2cnc(Nc3ccnc(N4CC5(CCOCC5)C4)n3)cc21 [Example 103, N-(2-(7-oxa-2-azaspiro[3.5]nonan-2-yl)pyrimidin-4-yl)-1-isopropyl-1H-imidazo[4,5-c]pyridin-6-amine]
0.00274 µM | CO[C@H]1CCN(c2nccc(Nc3cc4c(cn3)nc([C@H](C)O)n4[C@@H](C)C(F)(F)F)n2)C[C@H]1F [Example 684]
0.514 µM | CNC(=O)c1ccc(-c2nccc(Nc3cc4c(cn3)nc(C)n4C(C)C)n2)cn1 [Example 577, 5-[4-(1-Isopropyl-2-methyl-1H-imidazo[4,5-c]pyridin-6-ylamino)pyrimidin-2-yl]pyridine-2-carboxylic acid methylamide]
0.00107 µM | CCC(C)n1cc(C(=O)NC2CCOCC2)c2cnc(Nc3ccnc(N4CC[C@@H](OC)[C@@H](F)C4)n3)cc21 (single isomer, unassigned) [Example 375]
0.201 µM | CC(=O)NC(C)(C)/C=C/c1nccc(Nc2cc3c(cn2)nc(C)n3C(C)C)n1 [Example 589, N-{(E)-3-[4-(1-Isopropyl-2-methyl-1H-imidazo[4,5-c]pyridin-6-ylamino)pyrimidin-2-yl]-1,1-dimethylallyl}acetamide]
0.0071 µM | COC1CCN(c2nccc(Nc3cc4c(cn3)c(C(=O)NCCN3CCN(C)CC3)cn4C(C)C)n2)CC1 [Example 245]
0.345 µM | CC(C)n1c(CO)nc2cnc(Nc3ccnc(N4CCCCC4CCO)n3)cc21 (centres unmarked) [Example 668]
0.046 µM | COC1CCN(c2nccc(Nc3cc4c(cn3)nc(C)n4Cc3cccc4[nH]ncc34)n2)CC1 [Example 355, 1-(1H-Indazol-4-ylmethyl)-N-[2-(4-methoxy-1-piperidyl)pyrimidin-4-yl]-2-methyl-imidazo[4,5-c]pyridin-6-amine]
1.22 µM | CC(C)n1cnc2cnc(Nc3ccnc(N4CCC(N(C)C(=O)OC(C)(C)C)C4)n3)cc21 (centres unmarked) [Example 201]
0.0489 µM | CO[C@H]1[C@@H]2CC[C@H]1CN(c1nccc(Nc3cc4c(cn3)nc(CO)n4C(C)C)n1)C2 [Example 273, (1-Isopropyl-6-((2-((1R,5R,8r)-8-methoxy-3-azabicyclo[3.2.1]octan-3-yl)pyrimidin-4-yl)amino)-1H-imidazo[4,5-c]pyridin-2-yl)methanol]
0.0251 µM | Cc1nc2cnc(Nc3ccnc(-c4cn(CC5CC5)nc4Cl)n3)cc2n1C(C)C [Example 625, N-(2-(3-Chloro-1-(cyclopropylmethyl)-1H-pyrazol-4-yl)pyrimidin-4-yl)-1-isopropyl-2-methyl-1H-imidazo[4,5-c]pyridin-6-amine]
0.0897 µM | CC(C)n1c(CO)nc2cnc(Nc3ccnc(N4CCC(S(C)(=O)=O)CC4)n3)cc21 [Example 661]
0.201 µM | COC1CCN(c2nccc(Nc3cc4c(cn3)nc(C)n4Cc3cccc4[nH]cnc34)n2)CC1 [Example 358, 1-((1H-Benzo[d]imidazol-4-yl)methyl)-N-(2-(4-methoxypiperidin-1-yl)pyrimidin-4-yl)-2-methyl-1H-imidazo[4,5-c]pyridin-6-amine]
0.0198 µM | CC1CCC(n2c(CO)nc3cnc(Nc4ccnc(-c5cnn(S(=O)(=O)C6CC6)c5)n4)cc32)C1 (centres unmarked) [Example 697]
0.000919 µM | CCS(=O)(=O)n1cc(-c2nccc(Nc3cc4c(cn3)c(-c3cnn(CC(=O)NC5COC5)c3)cn4C(C)C)n2)cn1 [Example 255, 2-(4-(6-(2-(1-(Ethylsulfonyl)-1H-pyrazol-4-yl)pyrimidin-4-ylamino)-1-isopropyl-1H-pyrrolo[3,2-c]pyridin-3-yl)-1H-pyrazol-1-yl)-N-(oxetan-3-yl)acetamide]
0.00413 µM | C[C@H](n1c([C@@H](C)O)nc2cnc(Nc3ccnc(N4CC[C@](C)(O)[C@H](F)C4)n3)cc21)C(F)(F)F (single isomer, unassigned) [Example 620, (3R*,4S*)-3-Fluoro-1-{4-[2-((R)-1-hydroxyethyl)-1-((S)-2,2,2-trifluoro-1-methylethyl)-1H-imidazo[4,5-c]pyridin-6-ylamino]pyrimidin-2-yl}-4-methylpiperidin-4-ol]
0.064 µM | COCC1(OC)CCN(c2nccc(Nc3cc4c(cn3)nc(C)n4C(C)C)n2)CC1 [Example 516, (1-Isopropyl-2-methyl-1H-imidazo[4,5-c]pyridin-6-yl)[2-(4-methoxy-4-methoxymethylpiperidin-1-yl)pyrimidin-4-yl]amine]

Ki | Structure (SMILES)
0.161 µM | Cc1nc2cnc(Nc3ccnc(N4C[C@H]5C[C@@H](O)C[C@H]5C4)n3)cc2n1C(C)C [Example 550, (3aR,5R,6aS)-2-[4-(1-Isopropyl-2-methyl-1H-imidazo [4,5-c]pyridin-6-ylamino)pyrimidin-2-yl]octahydro-cyclopenta[c]pyrrol-5-ol]
1.42 µM | CC(C)n1cnc2cnc(Nc3ccnc(N4CCN5C(=O)OCC5C4)n3)cc21 (centres unmarked) [Example 87, 7-(4-(1-isopropyl-1H-imidazo[4,5-c]pyridin-6-ylamino)pyrimidin-2-yl)-tetrahydro-1H-oxazolo[3,4-a]pyrazin-3(5H)-one]
0.0295 µM | CO[C@@H]1CCN(c2nccc(Nc3cc4c(cn3)nc(CO)n4C(C)C)n2)C[C@@H]1C (racemic) [Example 632, (1-Isopropyl-6-(2-((±)-(cis)-4-methoxy-3-methylpiperidin-1-yl)pyrimidin-4-ylamino)-1H-imidazo[4,5-c]pyridin-2-yl)methanol]
0.0023 µM | COC1(CO)CCN(c2nccc(Nc3cc4c(cn3)c(-c3cnn(CC(N)=O)c3)cn4C(C)C)n2)CC1 [Example 446, 2-(4-(6-(2-(4-(hydroxymethyl)-4-methoxypiperidin-1-yl)pyrimidin-4-ylamino)-1-isopropyl-1H-pyrrolo[3,2-c]pyridin-3-yl)-1H-pyrazol-1-yl)acetamide]
0.0976 µM | CC(C)n1c(CO)nc2cnc(Nc3ccnc(N4CCC5(CC4)CNC(=O)CO5)n3)cc21 [Example 693]
0.787 µM | Cc1nc2cnc(Nc3ccnc(N4CCN(C(C)(C)C(N)=O)CC4)n3)cc2n1C(C)C [Example 544, 2-{4-[4-(1-Isopropyl-2-methyl-1H-imidazo[4,5-c]pyridin-6-ylamino)pyrimidin-2-yl]piperaziN-1-yl}isobutyramide]
0.0465 µM | CC(C)n1c(CO)nc2cnc(Nc3ccnc(N4CC[C@H]([S+](C)[O-])[C@H](F)C4)n3)cc21 (relative stereo) [Example 623, {6-[2-(cis-3-Fluoro-4-methanesulfinylpiperidin-1-yl)pyrimidin-4-ylamino]-1-isopropyl-1H-imidazo[4,5-c]pyridin-2-yl}methanol]
0.243 µM | CC(C)n1cnc2cnc(Nc3ccnc(N4CCN(C)C(C(N)=O)C4)n3)cc21 (centres unmarked) [Example 83, 4-(4-(1-isopropyl-1H-imidazo[4,5-c]pyridin-6-ylamino)pyrimidin-2-yl)-1-methylpiperazine-2-carboxamide]
0.00115 µM | CCC(C)n1cc(C(=O)NC2CCOCC2)c2cnc(Nc3ccnc(N4CC[C@@H](O)[C@@H](F)C4)n3)cc21 (single isomer, unassigned) [Example 323]
0.998 µM | CC(C)n1cnc2cnc(Nc3ccnc(N4CCCC5(CCCN5)CC4)n3)cc21 (centres unmarked) [Example 225]
1.35 µM | CC1CCN(CCNc2nccc(Nc3cc4c(cn3)ncn4C(C)C)n2)CC1 [Example 210]
0.428 µM | CC(C)n1cnc2cnc(Nc3ccnc(N4CCC(NS(C)(=O)=O)CC4)n3)cc21 [Example 78, N-(1-(4-(1-isopropyl-1H-imidazo[4,5-c]pyridin-6-ylamino)pyrimidin-2-yl)piperidin-4-yl)methanesulfonamide]
0.0879 µM | Cc1nc2cnc(Nc3ccnc(-c4cnn(S(=O)(=O)CC5COCCO5)c4)n3)cc2n1C(C)C (racemic) [Example 404, (±)-N-(2-(1-(((1,4-dioxan-2-yl)methyl)sulfonyl)-1H-pyrazol-4-yl)pyrimidin-4-yl)-1-isopropyl-2-methyl-1H-imidazo[4,5-c] pyridin-6-amine]
1.04 µM | COC1CCN(c2nccc(Nc3cc4nc(Cc5ccccc5F)n(C)c4cn3)n2)CC1 [Example 22, [2-(2-Fluorobenzyl)-3-methyl-3H-imidazo[4,5-c]pyridin-6-yl]-[2-(4-methoxypiperidin-1-yl)pyrimidin-4-yl]amine]
0.0181 µM | Cc1nc2cnc(Nc3ccnc(-c4cccnc4)n3)cc2n1C(C)C [Example 309, (1-Isopropyl-2-methyl-1H-imidazo[4,5-c]pyridin-6-yl)-(2-pyridin-3-ylpyrimidin-4-yl)amine]
0.0979 µM | CO[C@@H]1C[C@@H]2CN(c3nccc(Nc4cc5c(cn4)nc(C)n5C(C)C)n3)C[C@@H]2C1 [Example 551, 1-Isopropyl-N-(2-((3aR,5r,6aS)-5-methoxyhexahydrocyclopenta [c]pyrrol-2(1H)-yl)pyrimidin-4-yl)-2-methyl-1H-imidazo[4,5-c]pyridin-6-amine]
0.00251 µM | CCC(C)n1cc(C(=O)NC2CCC(O)CC2)c2cnc(Nc3ccnc(-c4cnn(S(=O)(=O)C5CC5)c4)n3)cc21 (centres unmarked) [Example 705]
0.0443 µM | COC1CCN(c2nccc(Nc3cc4c(cn3)c(S(C)(=O)=O)cn4C(C)C)n2)CC1 [Example 333, 1-Isopropyl-N-(2-(4-methoxypiperidin-1-yl)pyrimidin-4-yl)-3-(methylsulfonyl)-1H-pyrrolo[3,2-c]pyridin-6-amine]
0.669 µM | CN[C@H]1[C@@H]2CN(c3nccc(Nc4cc5c(cn4)ncn5C(C)C)n3)C[C@@H]21 [Example 45, 1-Isopropyl-N-(2-((1R,5S,6s)-6-(methylamino)-3-azabicyclo[3.1.0]hexan-3-yl)pyrimidin-4-yl)-1H-imidazo[4,5-c]pyridin-6-amine]
